For one compound, Ratio IC50 results are on record in ChEMBL document CHEMBL5375999, “Discovery of a Dual Tubulin and Neuropilin-1 (NRP1) Inhibitor with Potent In Vivo Anti-Tumor Activity via Pharmacophore-based Docking Screening, Structure Optimization, and Biological Evaluation” (J Med Chem, 2023).

Amino acid sequences for entries named in this document (tags omitted). A change or cut given only in a name is not applied to a line headed by its entry.
UniProt P68371: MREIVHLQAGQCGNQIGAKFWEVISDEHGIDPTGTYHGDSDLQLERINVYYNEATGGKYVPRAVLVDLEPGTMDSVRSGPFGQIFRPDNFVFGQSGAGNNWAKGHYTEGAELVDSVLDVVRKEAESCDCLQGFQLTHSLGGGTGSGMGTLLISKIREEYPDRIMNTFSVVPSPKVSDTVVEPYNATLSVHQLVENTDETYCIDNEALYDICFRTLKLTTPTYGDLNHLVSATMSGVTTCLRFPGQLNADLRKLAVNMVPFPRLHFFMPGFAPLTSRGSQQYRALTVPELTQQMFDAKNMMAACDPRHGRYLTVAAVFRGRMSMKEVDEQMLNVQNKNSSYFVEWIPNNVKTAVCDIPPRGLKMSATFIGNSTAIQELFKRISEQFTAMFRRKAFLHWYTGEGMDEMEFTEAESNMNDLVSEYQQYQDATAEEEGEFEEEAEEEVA
UniProt Q9H4B7: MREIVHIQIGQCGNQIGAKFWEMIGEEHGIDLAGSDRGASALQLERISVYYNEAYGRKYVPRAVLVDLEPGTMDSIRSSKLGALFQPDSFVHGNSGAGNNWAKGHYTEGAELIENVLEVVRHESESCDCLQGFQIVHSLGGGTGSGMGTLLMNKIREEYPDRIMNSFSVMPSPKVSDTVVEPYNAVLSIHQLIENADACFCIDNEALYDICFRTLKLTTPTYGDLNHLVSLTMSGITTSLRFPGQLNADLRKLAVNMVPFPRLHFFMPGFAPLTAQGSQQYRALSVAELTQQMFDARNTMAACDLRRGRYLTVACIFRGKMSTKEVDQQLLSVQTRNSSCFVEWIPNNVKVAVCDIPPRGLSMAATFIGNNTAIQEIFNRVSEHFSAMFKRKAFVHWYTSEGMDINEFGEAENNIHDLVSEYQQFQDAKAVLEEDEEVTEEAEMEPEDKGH
UniProt P0DPH7: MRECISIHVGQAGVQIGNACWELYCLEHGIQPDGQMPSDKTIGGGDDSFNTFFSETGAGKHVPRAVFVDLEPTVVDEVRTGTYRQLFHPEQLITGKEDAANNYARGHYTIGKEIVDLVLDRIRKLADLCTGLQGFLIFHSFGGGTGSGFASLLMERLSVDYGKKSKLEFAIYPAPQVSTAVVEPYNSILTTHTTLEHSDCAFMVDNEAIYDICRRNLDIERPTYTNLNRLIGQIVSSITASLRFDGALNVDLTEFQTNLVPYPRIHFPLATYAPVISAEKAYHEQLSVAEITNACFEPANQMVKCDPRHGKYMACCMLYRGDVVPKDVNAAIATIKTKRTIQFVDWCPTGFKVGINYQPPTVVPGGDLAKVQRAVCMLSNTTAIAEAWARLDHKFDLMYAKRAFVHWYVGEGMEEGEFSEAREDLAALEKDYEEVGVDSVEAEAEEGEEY
UniProt P68366: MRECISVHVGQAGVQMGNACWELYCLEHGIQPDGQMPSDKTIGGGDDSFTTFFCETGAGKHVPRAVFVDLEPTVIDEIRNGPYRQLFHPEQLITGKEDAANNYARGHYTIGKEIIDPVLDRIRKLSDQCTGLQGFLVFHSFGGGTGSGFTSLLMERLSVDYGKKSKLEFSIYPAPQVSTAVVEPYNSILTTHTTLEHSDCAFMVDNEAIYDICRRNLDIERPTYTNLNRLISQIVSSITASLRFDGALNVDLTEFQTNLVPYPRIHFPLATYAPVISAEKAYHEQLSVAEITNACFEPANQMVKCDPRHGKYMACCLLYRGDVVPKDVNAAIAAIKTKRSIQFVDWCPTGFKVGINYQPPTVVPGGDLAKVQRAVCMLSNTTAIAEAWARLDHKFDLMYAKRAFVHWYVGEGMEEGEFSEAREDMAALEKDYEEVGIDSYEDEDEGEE
UniProt Q13509: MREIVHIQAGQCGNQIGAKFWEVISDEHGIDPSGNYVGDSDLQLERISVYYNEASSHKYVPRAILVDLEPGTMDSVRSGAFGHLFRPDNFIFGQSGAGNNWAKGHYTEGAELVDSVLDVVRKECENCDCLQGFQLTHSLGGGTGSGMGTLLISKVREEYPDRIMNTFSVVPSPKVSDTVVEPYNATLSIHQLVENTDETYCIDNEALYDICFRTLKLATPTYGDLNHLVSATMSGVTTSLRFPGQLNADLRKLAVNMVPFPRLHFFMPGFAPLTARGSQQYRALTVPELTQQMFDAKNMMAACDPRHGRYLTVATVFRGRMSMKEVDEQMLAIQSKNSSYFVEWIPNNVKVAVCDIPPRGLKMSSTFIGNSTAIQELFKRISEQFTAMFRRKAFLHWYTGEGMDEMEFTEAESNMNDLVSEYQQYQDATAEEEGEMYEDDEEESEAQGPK
UniProt Q71U36: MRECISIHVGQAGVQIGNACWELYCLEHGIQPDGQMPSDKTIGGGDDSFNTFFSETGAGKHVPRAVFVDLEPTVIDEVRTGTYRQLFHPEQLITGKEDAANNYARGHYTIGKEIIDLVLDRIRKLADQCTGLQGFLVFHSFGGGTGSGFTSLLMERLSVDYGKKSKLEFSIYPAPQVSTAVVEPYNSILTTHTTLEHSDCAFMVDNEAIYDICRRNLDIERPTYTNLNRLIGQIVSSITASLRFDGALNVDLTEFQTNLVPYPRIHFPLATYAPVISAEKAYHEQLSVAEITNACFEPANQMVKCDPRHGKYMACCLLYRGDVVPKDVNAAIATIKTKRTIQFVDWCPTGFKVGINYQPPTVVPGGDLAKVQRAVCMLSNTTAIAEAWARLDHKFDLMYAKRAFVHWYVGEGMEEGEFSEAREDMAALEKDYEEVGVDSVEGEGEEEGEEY
UniProt Q3ZCM7: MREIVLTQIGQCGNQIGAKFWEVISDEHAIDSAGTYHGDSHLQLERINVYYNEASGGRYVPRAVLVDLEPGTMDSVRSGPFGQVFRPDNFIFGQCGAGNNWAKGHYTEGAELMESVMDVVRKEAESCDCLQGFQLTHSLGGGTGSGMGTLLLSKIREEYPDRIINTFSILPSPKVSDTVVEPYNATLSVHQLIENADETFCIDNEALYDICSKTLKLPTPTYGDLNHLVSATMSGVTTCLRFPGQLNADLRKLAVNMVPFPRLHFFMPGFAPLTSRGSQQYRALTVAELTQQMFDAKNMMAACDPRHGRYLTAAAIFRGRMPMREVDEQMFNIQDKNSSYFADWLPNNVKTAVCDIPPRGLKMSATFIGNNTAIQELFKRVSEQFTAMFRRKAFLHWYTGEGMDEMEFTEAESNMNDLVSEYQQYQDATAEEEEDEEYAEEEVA
UniProt P07437: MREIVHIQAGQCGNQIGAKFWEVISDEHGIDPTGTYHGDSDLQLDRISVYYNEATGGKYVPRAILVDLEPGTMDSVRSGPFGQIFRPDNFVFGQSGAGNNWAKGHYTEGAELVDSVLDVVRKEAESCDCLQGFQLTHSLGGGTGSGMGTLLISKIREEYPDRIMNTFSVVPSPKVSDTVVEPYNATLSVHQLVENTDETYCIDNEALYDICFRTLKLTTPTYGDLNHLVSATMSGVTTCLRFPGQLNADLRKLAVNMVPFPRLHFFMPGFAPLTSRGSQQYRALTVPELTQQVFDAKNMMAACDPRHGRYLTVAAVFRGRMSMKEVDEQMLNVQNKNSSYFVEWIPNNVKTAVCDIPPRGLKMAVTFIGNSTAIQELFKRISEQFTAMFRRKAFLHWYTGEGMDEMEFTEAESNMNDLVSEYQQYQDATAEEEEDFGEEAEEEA
UniProt P68363: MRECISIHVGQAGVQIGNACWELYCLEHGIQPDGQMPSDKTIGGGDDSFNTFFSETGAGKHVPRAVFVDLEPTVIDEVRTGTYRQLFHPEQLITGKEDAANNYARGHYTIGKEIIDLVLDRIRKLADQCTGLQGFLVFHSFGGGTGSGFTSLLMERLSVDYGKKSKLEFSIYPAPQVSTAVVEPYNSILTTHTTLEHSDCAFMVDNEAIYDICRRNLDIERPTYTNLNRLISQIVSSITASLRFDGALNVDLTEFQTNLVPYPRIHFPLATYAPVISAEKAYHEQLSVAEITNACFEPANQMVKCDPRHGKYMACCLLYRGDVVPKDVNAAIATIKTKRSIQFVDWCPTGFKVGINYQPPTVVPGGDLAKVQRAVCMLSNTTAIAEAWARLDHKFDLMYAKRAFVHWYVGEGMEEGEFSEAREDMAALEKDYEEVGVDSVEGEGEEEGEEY
UniProt Q9BQE3: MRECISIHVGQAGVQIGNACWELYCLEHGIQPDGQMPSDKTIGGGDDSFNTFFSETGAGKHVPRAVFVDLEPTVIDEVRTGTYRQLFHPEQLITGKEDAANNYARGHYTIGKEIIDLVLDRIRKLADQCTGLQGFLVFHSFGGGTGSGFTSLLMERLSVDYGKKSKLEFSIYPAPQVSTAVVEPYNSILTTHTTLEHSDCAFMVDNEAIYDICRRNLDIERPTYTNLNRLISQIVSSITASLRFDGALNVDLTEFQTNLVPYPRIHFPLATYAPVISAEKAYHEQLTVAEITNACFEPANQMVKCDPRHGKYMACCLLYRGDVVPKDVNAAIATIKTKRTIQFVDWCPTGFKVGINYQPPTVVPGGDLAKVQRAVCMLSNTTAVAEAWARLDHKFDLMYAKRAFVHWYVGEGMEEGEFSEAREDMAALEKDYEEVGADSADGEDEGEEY
UniProt Q6PEY2: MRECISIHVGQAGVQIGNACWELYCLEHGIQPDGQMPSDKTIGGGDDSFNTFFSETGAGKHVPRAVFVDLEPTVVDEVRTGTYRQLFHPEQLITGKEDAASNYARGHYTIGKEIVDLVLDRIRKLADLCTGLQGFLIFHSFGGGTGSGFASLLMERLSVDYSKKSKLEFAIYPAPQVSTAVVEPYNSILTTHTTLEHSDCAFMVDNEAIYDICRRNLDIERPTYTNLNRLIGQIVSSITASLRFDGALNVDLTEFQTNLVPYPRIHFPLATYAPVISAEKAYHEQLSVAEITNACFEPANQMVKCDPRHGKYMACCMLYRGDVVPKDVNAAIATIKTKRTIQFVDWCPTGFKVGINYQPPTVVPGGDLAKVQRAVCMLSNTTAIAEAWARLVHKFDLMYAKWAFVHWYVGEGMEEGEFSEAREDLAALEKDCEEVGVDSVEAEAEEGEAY
UniProt Q13885: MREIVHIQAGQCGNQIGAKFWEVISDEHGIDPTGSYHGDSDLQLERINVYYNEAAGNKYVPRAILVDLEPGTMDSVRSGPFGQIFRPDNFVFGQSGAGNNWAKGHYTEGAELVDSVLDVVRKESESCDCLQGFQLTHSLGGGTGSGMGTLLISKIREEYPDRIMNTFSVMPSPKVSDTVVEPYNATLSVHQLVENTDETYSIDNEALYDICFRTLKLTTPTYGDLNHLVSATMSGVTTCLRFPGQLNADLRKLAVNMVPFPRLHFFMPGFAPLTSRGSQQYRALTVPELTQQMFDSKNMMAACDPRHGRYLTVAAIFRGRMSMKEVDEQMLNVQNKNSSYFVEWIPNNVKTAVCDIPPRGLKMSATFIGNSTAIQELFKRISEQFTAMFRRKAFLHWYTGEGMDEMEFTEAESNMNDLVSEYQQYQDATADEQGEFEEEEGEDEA
UniProt Q9BVA1: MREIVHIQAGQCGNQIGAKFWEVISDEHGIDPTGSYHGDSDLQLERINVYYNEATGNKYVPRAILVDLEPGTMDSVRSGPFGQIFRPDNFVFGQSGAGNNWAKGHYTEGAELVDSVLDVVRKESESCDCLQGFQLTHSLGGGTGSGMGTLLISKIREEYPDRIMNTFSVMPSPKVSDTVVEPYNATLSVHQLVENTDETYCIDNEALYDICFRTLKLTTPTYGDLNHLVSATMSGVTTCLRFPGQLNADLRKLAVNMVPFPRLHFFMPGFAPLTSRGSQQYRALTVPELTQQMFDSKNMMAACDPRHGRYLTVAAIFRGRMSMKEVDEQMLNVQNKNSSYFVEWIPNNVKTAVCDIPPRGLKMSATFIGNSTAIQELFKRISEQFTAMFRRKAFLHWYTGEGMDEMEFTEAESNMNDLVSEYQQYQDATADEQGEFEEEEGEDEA
UniProt Q9BUF5: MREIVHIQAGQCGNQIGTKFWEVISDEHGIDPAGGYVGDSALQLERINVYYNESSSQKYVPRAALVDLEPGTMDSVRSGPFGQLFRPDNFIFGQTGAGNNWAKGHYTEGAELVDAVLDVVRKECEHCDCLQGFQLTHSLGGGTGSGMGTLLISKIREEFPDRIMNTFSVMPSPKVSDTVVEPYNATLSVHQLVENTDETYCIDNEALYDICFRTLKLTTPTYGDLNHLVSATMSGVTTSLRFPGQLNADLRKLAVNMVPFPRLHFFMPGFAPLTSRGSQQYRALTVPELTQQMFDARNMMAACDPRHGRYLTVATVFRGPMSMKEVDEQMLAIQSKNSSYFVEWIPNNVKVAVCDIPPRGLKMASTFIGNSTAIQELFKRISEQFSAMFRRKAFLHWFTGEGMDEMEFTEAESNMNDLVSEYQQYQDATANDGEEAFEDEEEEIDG

One assay addresses Tubulin (Homo sapiens) (UniProt P68371+Q9H4B7+P0DPH7+P68366+Q13509+Q71U36+P04350+Q3ZCM7+P07437+P68363+Q9BQE3+Q6PEY2+Q13885+Q9BVA1+Q9BUF5). Kind of assay: Potency index, ratio of CA-2 IC50 to test compound IC50 for inhibition of tubulin polymerization (unknown origin). The format is protein-complex assay.
The species named for assay [1] is Homo sapiens. The assay is described as follows: Potency index, ratio of EG00229 IC50 to test compound IC50 for inhibition of [125I]-VEGF-A165 binding to NPR1 (unknown origin) transfected in HUVECs.
For assay [2], the species on record is Homo sapiens. Kind of assay: Selectivity index, ratio of IC50 for human PrECs to IC50 for human PC-3 cells.

As for `COc1ccc(/C=C\c2cc(OC)c(OC)c(OC)c2)cc1NC(=O)CCC(=O)N[C@@H](CCCNC(=N)N)C(=O)O`, the Ratio IC50 is 2 at Tubulin (Homo sapiens), 3 in the assay filed under Homo sapiens [1] and above 500 in the assay listed under Homo sapiens [2].
